This is a selection; strong and weak results do not stand in their true shares. Some of these compounds have results that are not shown, active ones among them. Calls of active or inactive are those of the source. No stated cut-off is given here; in the data, active means inhibition above about 50%; inactive means the rest.
The compounds below were run on YopH tyrosine phosphatase [Yersinia enterocolitica] (assay: YopH tyrosine phosphatase inhibitors, primary screen, biochemical, fluorescence Ex485/Em525 (AID 898)). Details: hits give high values, concentration not given here.

Structure (SMILES) | inhibition
CN(C)c1cccc(C(=O)NCC2(N(C)C)CCCCC2)c1 | inactive: -40.1%
O=C(OC1CN2CCC1CC2)C(CO)(c1ccccc1)c1ccccc1 (stereo not given) | inactive: 8.38%
CC(C)N1C(=O)CC2(CCN(CCOC(=O)C(O)(c3ccccc3)c3ccccc3)CC2)C1=O | inactive: -2.53%
CCN1CCCC(OC(=O)C2(O)c3ccccc3C=Cc3ccccc32)C1 (stereo not given) | inactive: -39.5%
CN(C)C1CCCC1OC(=O)C(O)(c1ccccc1)c1ccccc1 (stereo not given) | inactive: -27.2%

From PubChem BioAssay AID898 (University of Pittsburgh Molecular Library Screening Center, 2007)
